Data published in patent US11123334B2 (priority 2018, dated 2021).

System: rhesus monkeys
Experiment: Choice between food pellet and intravenous remifentanil infusion

In the case of methocinnamox, the “time until remifentanil (largest dose only) was chosen again” value (after 1.0 mg/kg MCAM, one monkey) was 3 days, the “time until sensitivity to remifentanil returned to control” value (after a single injection of MCAM, one monkey) was 5 days and the “choice between food and remifentanil after antagonist” value (beginning 24 hours after 1.0 mg/kg MCAM, one monkey (FIG. 5)) was “chose exclusively food for the next two sessions”.
